Experimental data taken from ChEMBL document CHEMBL4229371, “Discovery of [1,2,4]triazolo[3,4-b][1,3,4]thiadiazole derivatives as novel, potent and selective c-Met kinase inhibitors: Synthesis, SAR study, and biological activity” (Eur J Med Chem, 2018).

What was measured:
Homo sapiens [1] = species on record: Homo sapiens; assay: Selectivity for GST-tagged human c-MET kinase over GST-tagged human TIE2
Homo sapiens [2] = species on record: Homo sapiens; assay: Selectivity for GST-tagged human c-MET kinase over GST-tagged human PDGFRalpha
Homo sapiens [3] = species on record: Homo sapiens; assay: Selectivity for GST-tagged human c-MET kinase over GST-tagged human FGFR1
Homo sapiens [4] = species on record: Homo sapiens; assay: Selectivity for GST-tagged human c-MET kinase over GST-tagged human EGFR
Homo sapiens [5] = species on record: Homo sapiens; assay: Selectivity for GST-tagged human c-MET kinase over GST-tagged human TRKA
Homo sapiens [6] = species on record: Homo sapiens; assay: Selectivity for GST-tagged human c-MET kinase over GST-tagged human ALK
Homo sapiens [7] = species on record: Homo sapiens; assay: Selectivity for GST-tagged human c-MET kinase over GST-tagged human RET
Homo sapiens [8] = species on record: Homo sapiens; assay: Selectivity for GST-tagged human c-MET kinase over GST-tagged human c-KIT
Homo sapiens [9] = species on record: Homo sapiens; assay: Selectivity for GST-tagged human c-MET kinase over GST-tagged human FLT1
Homo sapiens [10] = species on record: Homo sapiens; assay: Selectivity for GST-tagged human c-MET kinase over GST-tagged human KDR
Homo sapiens [11] = species on record: Homo sapiens; assay: Selectivity for GST-tagged human c-MET kinase over GST-tagged human AXL
Homo sapiens [12] = species on record: Homo sapiens; assay: Selectivity for GST-tagged human c-MET kinase over GST-tagged human ABL1
Homo sapiens [13] = species on record: Homo sapiens; assay: Selectivity index, ratio of IC50 for GST-tagged human FLT3 to IC50 for GST-tagged human c-MET kinase
Homo sapiens [14] = species on record: Homo sapiens; assay: Selectivity for GST-tagged human c-MET kinase over GST-tagged human TRKB
Homo sapiens [15] = species on record: Homo sapiens; assay: Selectivity for GST-tagged human c-MET kinase over GST-tagged human LCK
Homo sapiens [16] = species on record: Homo sapiens; assay: Selectivity for GST-tagged human c-MET kinase over GST-tagged human RON

For `COc1ccc2c(OCc3nnc4sc(-c5cnn(C)c5)nn34)ccnc2c1`, the Selectivity ratio (Homo sapiens [1]) was greater than 2500, the Selectivity ratio (Homo sapiens [2]) was greater than 2500 and the Selectivity ratio (Homo sapiens [3]) was greater than 2500. It also gave a Selectivity ratio (Homo sapiens [4]) greater than 2500, a Selectivity ratio (Homo sapiens [5]) greater than 2500 and a Selectivity ratio (Homo sapiens [6]) greater than 2500. It also gave a Selectivity ratio (Homo sapiens [7]) greater than 2500, a Selectivity ratio (Homo sapiens [8]) greater than 2500 and a Selectivity ratio (Homo sapiens [9]) greater than 2500. It also gave a Selectivity ratio (Homo sapiens [10]) greater than 2500, a Selectivity ratio (Homo sapiens [11]) greater than 2500 and a Selectivity ratio (Homo sapiens [12]) greater than 2500. The Ratio IC50 (Homo sapiens [13]) was greater than 650, the Selectivity ratio (Homo sapiens [14]) was greater than 2500 and the Selectivity ratio (Homo sapiens [15]) was greater than 2500. The Selectivity ratio (Homo sapiens [16]) was greater than 2500.
